## Binding of CDR-mutated scFvs to a peptide of the spike HR2 region

Values reported by Engelhart et al. 2022, doi:10.1038/s41597-022-01779-4 (FLAb copy).

Antigen: PDVDLGDISGINAS, a 14-residue peptide of the SARS-CoV-2 spike HR2 region.

Each scFv is VH, three GGGGS repeats, VL, as in the parent Ab-14, and differs from it in the CDRs of the heavy chain only.
VH: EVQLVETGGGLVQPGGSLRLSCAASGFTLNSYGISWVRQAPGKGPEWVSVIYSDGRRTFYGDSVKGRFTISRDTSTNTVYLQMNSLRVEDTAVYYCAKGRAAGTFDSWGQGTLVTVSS
VL: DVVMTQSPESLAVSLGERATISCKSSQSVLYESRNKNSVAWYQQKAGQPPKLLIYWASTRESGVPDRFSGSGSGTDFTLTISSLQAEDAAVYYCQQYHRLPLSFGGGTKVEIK

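The parent was found by panning a naive human phage display library on the peptide. In library AAYL49, one, two or three CDR residues were substituted; doubles and triples were drawn at random. AlphaSeq pools MATa yeast showing the antibodies with MATalpha yeast showing the peptide. After mating in shaken culture at 30 °C for 16 h, diploids were selected and their barcode pairs sequenced. Each replicate has its own calibration line, from reference interactions of the BCL2 family. The assay was run in three technical replicates.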

The parent's heavy chain CDRs are GFTLNSYGIS, VIYSDGRRTFYGDSVK, GRAAGTFDS; each variant's own CDRs replace them letter for letter.
All variants listed here change R100 of the VH, counted from its first residue.
Each Kd is an estimate from the mating assay, the geometric mean of the replicates in which the pair was seen; lower is stronger.
"nd" marks a missing value. The strain was present, yet no cells mated with the target were sequenced in any replicate, which points to weak or no binding.
Entries are sorted by rising average, undetected variants last.

Variant GFTLNSYGIS, VIYSDGRRTFYGDSVK, GSQAGTFDW gave 3.4 nM (3 of 3 replicates).
Variant GFTLNSYGIT, VIYSDGFRTFYGDSVK, GFAAGTFDS gave 4.0 nM (3 of 3 replicates).
Variant GFTLNSYGIS, VIYSDGRRTFYGDSVK, GKSAGTFSS gave 4.1 nM (3 of 3 replicates).
Variant GFTLNTYGIS, VIYSDGRRTFYGDQVK, GEAAGTFDS gave 5.9 nM (3 of 3 replicates).
Variant GFTLNSYGIS, VIYSDGRRTYYGDSVK, GEAAGTFDS gave 6.4 nM (3 of 3 replicates).
Variant GFTLNKYGIS, VIYSDGRRTFYGDRVK, GQAAGTFDS gave 8.6 nM (3 of 3 replicates).
Variant GFTLNSYGIS, VIYSDGRRTFYGDPVK, GCEAGTFDS gave 11 nM (3 of 3 replicates).
Variant GFTLNSYGIS, VIYSDGRRTFYGDSVR, GPAAGTFDS gave 23 nM (3 of 3 replicates).
Variant GFTLNEYGIS, VIYSDGRRTFYGDSVK, GQAKGTFDS gave 24 nM (3 of 3 replicates).
Variant GFTLNSYGIS, VIYSDGRRMFYGDSVK, GQAAGTFDF gave 51 nM (3 of 3 replicates).
Variant GFTLNSYGIS, VIYSDGRRTFYGDSVK, GHSAGWFDS gave 52 nM (3 of 3 replicates).
Variant GFTLNSYGIS, VIYSYGRRTFYGDSVK, GEAAGTSDS gave 200 nM (1 of 3 replicates).
Variant GFTLNSYGIS, VIYSDGRRYFYGDSVK, GYEAGTFDS gave 210 nM (3 of 3 replicates).
Variant GFTLNSYGIS, VIYSDGRRTFYGDSVS, GHANGTFDS gave 630 nM (1 of 3 replicates).
Variant GFWLNSYGIS, VIYSDGRRTFYGDSVF, GEAAGTFDS gave 890 nM (3 of 3 replicates).
Variant GFTLNSYGIS, VIYSDGRRPFYNDSVK, GYAAGTFDS gave 1.3 µM (1 of 3 replicates).
Variant EFTLNSYGIS, VIYSDGRRTFYGDSVK, KDAAGTFDS gave 3.2 µM (2 of 3 replicates).
Variant GFTLNSYGIS, VIYSDGRQTFYGDSVK, FPAAGTFDS gave 4.4 µM (2 of 3 replicates).
Variant GFTLNSYGIS, VIYSDGRRTFYGDSVK, GKGAGTFFS gave 6.5 µM (2 of 3 replicates).
Variant GFTLNSYGIS, VGYSDGRRTFYGDSVK, GQQAGTFDS gave 6.7 µM (1 of 3 replicates).
Variant GVTLNSYGIS, VIYYDGRRTFYGDSVK, GLAAGTFDS gave 6.9 µM (2 of 3 replicates).
Variant GFTGNSYGIS, VIYSDGRRTFYGDSVK, GNAAGTHDS gave 7.0 µM (2 of 3 replicates).
Variant GFTLNSYLIS, VIYSDGRRTFYGDSVH, GSAAGTFDS gave 8.4 µM (1 of 3 replicates).
Variant GFTLNSYGIK, VIYSDGRRSFYGDSVK, GKAAGTFDS gave 15 µM (1 of 3 replicates).
Variant GFTLNSYGIS, VIYMDGRRTFRGDSVK, GAAAGTFDS gave 16 µM (1 of 3 replicates).
Variant GFRLNSYGIV, VIYSDGRRTFYGDSVK, GGAAGTFDS gave 16 µM (1 of 3 replicates).
Variant PFTLNSYGIS, VIYSDGRRTFYGDSVK, GCAAGTFDS gave 17 µM (2 of 3 replicates).
Variant GFTLNSYGIC, VIYSDGRRTFYGDSVK, GTLAGTFDS gave 21 µM (3 of 3 replicates).
Variant GFTLNSYGIS, VIYSDYRRTFYGDSVK, GCAAGTFDS gave 22 µM (3 of 3 replicates).
Variant GFTLNSYGIS, VIYSDHRRTFYGDSRK, GVAAGTFDS gave 34 µM (1 of 3 replicates).
Variant GFTLNSYGIS, YIYSDGYRTFYGDSVK, GKAAGTFDS gave 36 µM (3 of 3 replicates).
Variant GFTLNSYGIS, VIYSDGRITFYADSVK, GCAAGTFDS gave 42 µM (1 of 3 replicates).
Variant GFTLNEYGIS, VIYSDGRRPFYGDSVK, GLAAGTFDS gave 63 µM (3 of 3 replicates).
Variant GFTLNSYGIS, VIYSTGRRTFYGDSVK, GYAAGWFDS gave nd (0 of 3 replicates).
Variant GFTLNSYGNS, VIYSFGRRTFYGDSVK, GCAAGTFDS gave nd (0 of 3 replicates).
Variant GHTLNSYGIS, VIYSDGRRTFYGDSVK, TTAAGTFDS gave nd (0 of 3 replicates).
Variant GFTLNSYGIS, VIYSDGVRTFYGDSNK, GGAAGTFDS gave nd (0 of 3 replicates).
Variant GFTLNSYGIS, VIYSDGRRTFYGDSVK, GPAAGFFDS gave nd (0 of 3 replicates).
Variant GMTLNSYGIS, VIYSDKRRTFYGDSVK, GQAAGTFDS gave nd (0 of 3 replicates).
Variant GFTLNSYGIS, VIYSDGRRTMYGDSVK, GQAAGTFDH gave nd (0 of 3 replicates).
Variant GFTLNSYGIS, VRYSDGRRTFYLDSVK, GWAAGTFDS gave nd (0 of 3 replicates).
Variant GFTLNSYGIH, VIYSDGRRTFLGDSVK, GGAAGTFDS gave nd (0 of 3 replicates).

Extract of 2 entries:

For GFTLNSYGIS, VIYSDYRRTFYGDSVK, GCAAGTFDS, the assay gave 22 µM (3 of 3 replicates).
For GFTLNSYGIS, VIYSDHRRTFYGDSRK, GVAAGTFDS, the assay gave 34 µM (1 of 3 replicates).

Parent in this assay: reference entry 4.4 nM, copy in this library 13 µM (one replicate of three).
Empty control strains, which show no peptide, gave a signal in 15% of pairings with library AAYL49; the median was 11 µM and 95% of these signals were weaker than 680 nM. No background was subtracted.